According to PMC4128174 (European journal of medicinal chemistry, 2014):

Legend:
Conditions in all cases: [5] = 100 µM
hIDE [1] = biological target: T1, hIDE (Homo sapiens, UniProt P14735)
T1 sequence (P14735 1-1019): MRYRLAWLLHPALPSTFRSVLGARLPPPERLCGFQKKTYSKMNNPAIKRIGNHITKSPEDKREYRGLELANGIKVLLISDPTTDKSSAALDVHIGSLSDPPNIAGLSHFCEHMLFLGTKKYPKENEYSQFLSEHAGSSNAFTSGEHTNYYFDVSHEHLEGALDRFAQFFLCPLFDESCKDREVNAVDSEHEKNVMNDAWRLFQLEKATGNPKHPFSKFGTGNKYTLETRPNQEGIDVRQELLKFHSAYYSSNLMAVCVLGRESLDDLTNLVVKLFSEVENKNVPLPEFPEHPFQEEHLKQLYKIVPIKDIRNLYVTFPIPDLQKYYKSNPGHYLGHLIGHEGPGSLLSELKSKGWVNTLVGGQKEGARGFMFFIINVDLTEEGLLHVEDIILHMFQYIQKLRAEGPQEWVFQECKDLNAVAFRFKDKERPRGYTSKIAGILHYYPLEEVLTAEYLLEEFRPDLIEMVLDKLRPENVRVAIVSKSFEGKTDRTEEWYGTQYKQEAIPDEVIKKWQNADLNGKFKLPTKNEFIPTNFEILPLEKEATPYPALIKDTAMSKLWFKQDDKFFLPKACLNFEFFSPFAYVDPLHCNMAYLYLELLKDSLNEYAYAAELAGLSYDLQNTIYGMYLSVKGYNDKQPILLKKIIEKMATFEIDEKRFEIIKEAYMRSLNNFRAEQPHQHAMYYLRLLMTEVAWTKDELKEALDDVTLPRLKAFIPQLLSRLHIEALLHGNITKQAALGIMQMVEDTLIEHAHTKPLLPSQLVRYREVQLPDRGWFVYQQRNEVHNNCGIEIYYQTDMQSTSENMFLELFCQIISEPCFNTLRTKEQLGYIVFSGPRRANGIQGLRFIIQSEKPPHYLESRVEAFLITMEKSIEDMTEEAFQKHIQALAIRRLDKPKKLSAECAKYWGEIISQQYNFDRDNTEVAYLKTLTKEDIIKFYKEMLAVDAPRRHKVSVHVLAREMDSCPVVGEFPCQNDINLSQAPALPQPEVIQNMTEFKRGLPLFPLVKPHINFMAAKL

hIDE [2] = biological target: T1, hIDE; remark: listed apart in the source
hIDE [3] = biological target: T1, hIDE; remark: listed apart in the source

`CNC(=O)[C@H](Cc1c[nH]cn1)NC(=O)CN(CCCc1ccccc1)CC(=O)O` [Compound 5, ((((S)-2-(1H-Imidazol-4-yl)-1-methylcarbamoyl-ethylcarbamoyl)-methyl)-(3-phenylpropyl)-amino)-acetic acid] was tested, and the “effect on hydrolysis of IGF-II” value (hIDE [1]) was “promotes the hydrolysis”, the “effect on hydrolysis of somatostatin” value (hIDE [2]) was “no effect” and the “effect on hydrolysis of glucagon” value (hIDE [3]) was “no effect”.
